The structures appear in SMILES notation. Only a part is listed here, and it is no random draw. Active and inactive are the calls of the source.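 How the source made its calls: active means inhibition above the hit cutoff computed for the primary STAT3 screen (cut at about 44% in these data); inactive means the rest.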

As usually defined, the inhibition is the drop in the measured response relative to a control, in per cent.

This assay is described as follows: STAT3 reporter inhibitors, retest of hits, confirmation, U3A cells, luciferase, luminescence (AID 1265).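 Further: 0% = IL-6 plus DMSO and 100% = IL-6 plus nifuroxazide control.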 The conditions noted are these: IL-6 STAT3 luciferase reporter, at 5.7 µM, stronger effect = higher value, cell line lacks STAT1. (In general: In a reporter assay the amount or activity of a reporter protein is the signal.)
Regarding `O=c1c2cc([N+](=O)[O-])ccc2[nH]c2c([N+](=O)[O-])cc([N+](=O)[O-])cc12`, the inhibition is inactive: 30.7%.

(Values after PubChem BioAssay AID1265 (The Scripps Research Institute Molecular Screening Center, 2008).)
